Key:
[1] = Solubility in 50 mM phosphate buffer; conditions: 50 mM phosphate buffer pH 6.83, ambient conditions
[2] = Pharmacokinetics studies of formulations, SC dosing; conditions: SC 0.2 mg/kg, mean
[3] = Pharmacokinetics in monkeys, SC dosing; conditions: male cynomolgus monkeys, SC single dose 0.2 mg/kg, 0.1% bovine serum albumin in phosphate buffered saline; mean

In the case of tirzepatide [reference compound], the “QNT (quantitative solubility)” value [1] is reported as over 2000 µg/mL, the “Half Life” value ([2]; Formulation 1 (0.1% bovine serum albumin in phosphate buffered saline)) is reported as 66.2 h and the “Half Life” value ([2]; Formulation 2 (40% propylene glycol and 60% 10 mM pH 6 citrate buffer)) is reported as 59.8 h. For the same substance, the “Half Life” value [3] was 63.2 h.
